Measured values reported in ChEMBL document CHEMBL1130720, “Design, synthesis, and conformational analysis of a novel series of HIV protease inhibitors” (Bioorg Med Chem Lett, 1998).

Biological target: Human immunodeficiency virus type 1 protease (Human immunodeficiency virus 1, UniProt Q72874)
Assay: Binding affinity to HIV-1 protease was determined

Structure (SMILES): COc1ccc(S(=O)(=O)N(CC2CCCC2)C[C@@H](O)CN(CCc2ccccc2)C(=O)OCC2COCO2)cc1 (stereo partly specified)
- Ki: 65 nM
